Here are results for 1 molecule from patent US10072293B2, “Systems, models and methods for identifying and evaluating skin-active agents effective for treating dandruff/seborrheic dermatitis” (The Procter and Gamble Company, priority 2011, dated 2018).

The experiment relates to reconstituted human epidermis (RHE). Description: Connectivity map linkage scores, inflammatory skin disorder signature (top 70 up / 70 down), RHE instances. Type of experiment: cell-based. Details: scale not given here. The note with it: 20 ng/ml. An excerpt:
Gene expression data from five inflammatory skin disorders (acne, atopic dermatitis, dandruff, eczema and psoriasis) were collected from a clinical genomics study and published studies. The raw expression data were used to produce a rank-ordered list of most differentially regulated genes associated with inflammatory skin disorders.
The derived gene signature was used to query a provided database comprising gene expression data from clinical genomics studies of a widely different inflammatory skin disorders, published in vitro genomics studies of disparate inflammatory skin disorders, and genomics data from an internal in vitro model of dandruff inflammatory pathology (human organotypic, MatTek, cultures). […] Thus, the internal model was validated as being useful for study of inflammatory cascades and other gene expression alterations associated with inflammatory skin disorders.

Values joined by “and” are separate entries in the source; they are usually repeats but may differ in a detail not shown here. Equal entries are not always repeated.

B1: IL20: interleukin (protein, UniProt Q9NYY1 25-176, looked up)
Interleukin-20: LKTLNLGSCVIATNLQEIRNGFSEIRGSVQAKDGNIDIRILRRTESLQDTKPANRCCLLRHLLRLYLDRVFKNYQTPDHYTLRKISSLANSFLTIKKDLRLCHAHMTCHCGEEAMKKYSQILSHFEKLEPQAAVVKALGELDILLQWMEETE
For the molecule B1, the Score is 0.731 and 0.702 and 0.668; the “Up Score” value is 0.424 and 0.333 and 0.436.
